Source: patent US4959361A, “Triazolo(4,3-A)(1,4)benzodiazepines and thieno (3,2-F)(1,2,4)triazolo(4,3-A)(1,4)diazepine compounds which have useful activity as platelet activating factor (PAF) antagonists” (Hoffmann-La Roche Inc., priority 1988, dated 1990)

Protein sequences, listed by entry. Tags and fused reporters are not part of them. Residues count along the entry.
UniProt A0A8I3NSH0, 1-343: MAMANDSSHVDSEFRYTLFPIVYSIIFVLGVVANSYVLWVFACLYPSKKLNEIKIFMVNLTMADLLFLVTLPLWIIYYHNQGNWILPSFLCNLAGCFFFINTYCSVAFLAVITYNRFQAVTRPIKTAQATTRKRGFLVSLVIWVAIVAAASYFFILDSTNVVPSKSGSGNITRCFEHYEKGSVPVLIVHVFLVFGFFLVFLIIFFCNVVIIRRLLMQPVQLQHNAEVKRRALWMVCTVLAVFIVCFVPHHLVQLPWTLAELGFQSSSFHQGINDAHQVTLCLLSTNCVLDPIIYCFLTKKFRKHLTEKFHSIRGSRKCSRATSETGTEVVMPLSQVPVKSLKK

How the values were obtained:
[1] = tested on: PAF Induced Bronchoconstriction; assay: PAF induced bronchoconstriction assay, intravenous testing; conditions: 1 minute pretreatment, PAF 1 μg/kg i.v.
Description: Male animals (Hartlet Strain, 400-500 g were anesthetized with urethane (2 g/kg, i.p.). Each animals' trachea was cannulated and the guinea pigs were respirated using a Harvard small animal rodent respirator (3.0 cc stroke volume, 40 breaths per min.). Tracheal pressure was recorded from a cannula inserted in the trachea and connected to a Statham pressure transducer.
The jugular vein was cannulated for administering compounds. Spontaneous breathing was arrested with succinylcholine (1.2 mg/kg, i.v.) administered 2 minutes prior to intravenous injection of platelet activating factor PAF).
For the intravenous testing, the guinea pig is given a 1-minute pretreatment with propranolol at a dose of 0.1 mg/kg intravenously. The test compound is administered with a 1 minute pretreatment prior to intravenous challenge with PAF. The animal is then challenged with a 1 μg/kg intravenous dose of PAF and the change in tracheal pressure is measured.
The change in tracheal pressure is determined by subtracting the steady state baseline achieved after administration of succinylcholine from the peak broncho. constriction seen after challenge with PAF. The mean is calculated for each test compound and compared to the mean of the control animals to give the percent inhibition of bronchoconstriction. The standard error is calculated as the standard error of the mean.

[2] = tested on: PAF Induced Bronchoconstriction; assay: PAF induced bronchoconstriction assay, oral testing; conditions: Table I
[3] = molecular target: PAF-binding, dog platelets (Canis lupus familiaris, UniProt A0A8I3NSH0); assay: PAF binding assay (radiolabelled H-PAF, washed dog platelets); conditions: read-out: PAF-binding IC-50, Table II, triazolobenzodiazepines, 10 minutes at room temperature
Description: The binding assay was done in […] polyethylene microcentrifuge tubes (Beckman) containing 50 μl of an oil mixture of 2 parts Siliconol AR200 (Serva): 1 part Silicone Fluid (Arthur H. Thoma). Buffer, standards, or analogs (150 μl total volume) were added to the tubes. Radiolabelled H-PAF (50 μl) was then added to the tubes. The reaction was started by the addition of 50 μl of dog platelets (2×10^7 platelets). The tubes were capped, inverted several times to mix, and incubated for 10 minutes at room temperature. The platelets were separated from the incubation mixture by centrifuging 1 minute in a Beckman Microfuge B centrifuge. The tip of the microfuge tube was cut off, and the platelets were washed out of the tip with 200 μl of 50% methanol (Burdick and Jackson). Aquasol (NEN, 10 ml) was added and the radioactivity in the samples was determined using an LS 8100 Beckman liquid scintillation counter linked to a Techtran tape recorder Data was processed through an in-house computer system. Alternatively, radioactivity was determined using a Searle Mark III liquid scintillation counter linked to a Iso-Data microprocessor.
(b) preparation of platelets
Blood was collected from anesthesized or unanesthesized dogs into 50 ml plastic centrifuge tubes containing 3.8% sodium citrate as the anticoagulant (1 volume of citrate/9 volumes of blood). […] An aliquot of the washed platelets was counted. […]

Row | SMILES | Bronchoconstriction ID-50 i.v. ([1]; Table I) | Bronchoconstriction ID-50 p.o. 2 hr [2] | pIC50 [3] | Bronchoconstriction ID-50 i.v. ([1]; Table II)
1 | Cc1nnc2n1-c1sc(C#CCN3C(=O)COc4ccccc43)cc1C(c1ccccc1Cl)=NC2 | 0.007 mg/kg | 0.076 mg/kg |  | 
2 | COc1c(C)c(C)c2c(c1C)CCC(C)(C#Cc1ccc3c(c1)C(c1ccccc1F)=NCc1nnc(C)n1-3)O2 (stereo not shown) |  |  | 7.15 | 0.03 mg/kg

pIC50: −log10 of the molar value.
